# Experimental data taken from paper PMC4363177 (Bioorganic & medicinal chemistry, 2015).
# The chains behind the UniProt entries cited, without tags or fusion partners.
# UniProt P35367, whole entry: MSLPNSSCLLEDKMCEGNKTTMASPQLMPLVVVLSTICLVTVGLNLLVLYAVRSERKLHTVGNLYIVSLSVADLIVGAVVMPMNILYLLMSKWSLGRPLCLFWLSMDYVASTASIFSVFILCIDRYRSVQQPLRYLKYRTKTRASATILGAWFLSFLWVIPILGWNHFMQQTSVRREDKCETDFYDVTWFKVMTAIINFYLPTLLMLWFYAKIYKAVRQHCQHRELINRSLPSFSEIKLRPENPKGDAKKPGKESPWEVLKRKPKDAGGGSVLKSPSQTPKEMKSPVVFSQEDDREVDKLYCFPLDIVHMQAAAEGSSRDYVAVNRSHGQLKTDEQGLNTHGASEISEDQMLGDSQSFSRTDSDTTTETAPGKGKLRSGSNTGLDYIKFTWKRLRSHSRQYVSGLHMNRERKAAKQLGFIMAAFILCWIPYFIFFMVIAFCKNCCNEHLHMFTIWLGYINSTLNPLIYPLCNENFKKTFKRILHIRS
# How the values were obtained:
# histamine H1 receptor = settings: adenylyl cyclase and PLC signaling; cited from earlier work
# 5-HT2B receptor = settings: cited from earlier work
# [1] = tested on: 5-HT2 receptor subtypes and H1 receptors; settings: at 5-HT2 receptor subtypes and H1 receptors, depending on receptor type
# [2] = molecular target: human histamine H1 receptor (Homo sapiens, UniProt P35367); test: Radioligand competitive displacement binding, H1
smiles,measurement,setting,value
"CN(C)[C@@H]1Cc2ccccc2[C@@H](c2ccccc2)C1 (relative stereo) [(−)-trans-PAT, (2S, 4R)-(−)-trans-4-phenyl-N,N-dimethyl-1,2,3,4-tetrahydronaphthalen-2-amine]",functional activity at H1 receptor signaling,histamine H1 receptor,activates H1 receptor-mediated adenylyl cyclase signaling but is an antagonist at H1-linked PLC signaling
same,functional activity at 5-HT2B receptors,5-HT2B receptor,inverse agonist (and competitive antagonist) activity
"CN(C)C1Cc2ccccc2C(c2ccccc2)C1 (stereo not shown) [PAT, 4-phenyl-2-dimethylaminotetralin]",higher affinity for the (−)- over (+)-enantiomer,[1],3–15 fold
"CN(C)[C@H]1Cc2ccccc2[C@H](c2ccc([N+](=O)[O-])cc2)C1 (relative stereo) [Analog 5j, trans-4-(4′-Nitrophenyl)-N,N-dimethyl-1,2,3,4-tetrahydronaphthalen-2-amine]",Ki,[2],680 nM
